## Apparent affinities of Ab-14 variants for a coronavirus HR2 peptide

Reference: Li et al. 2023, doi:10.1038/s41467-023-39022-2. File: FLAb, binding data.

All variants were tested on one target, the spike HR2 peptide PDVDLGDISGINAS (SARS-CoV-2).

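Designed CDR sequences, proposed from the first random library and measured here. Several design methods are mixed in this list. Affinity was read by AlphaSeq, a pooled yeast mating assay with surface-displayed partners. The frequency of each diploid, read from paired DNA barcodes, reflects how well the two displayed proteins bind. A regression on co-assayed BCL2-family reference pairs converts the normalised counts of each replicate to an apparent Kd. The assay was run in six technical replicates.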

Each scFv is VH, a 15-residue (Gly4Ser)3 linker, VL, as in the parent Ab-14, and differs from it in the CDRs of the light chain only.
VH: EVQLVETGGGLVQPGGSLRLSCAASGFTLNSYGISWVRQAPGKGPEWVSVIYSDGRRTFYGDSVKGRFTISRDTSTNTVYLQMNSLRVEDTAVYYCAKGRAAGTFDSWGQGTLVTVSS
VL: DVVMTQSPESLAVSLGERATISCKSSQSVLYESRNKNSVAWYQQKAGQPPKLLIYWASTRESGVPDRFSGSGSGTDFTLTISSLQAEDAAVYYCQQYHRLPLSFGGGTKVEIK

Variants are written as CDR1, CDR2 and CDR3 of the light chain (limits as in the source). Parent: KSSQSVLYESRNKNSVA, WASTRES, QQYHRLPLS.
Values are apparent Kd, the geometric mean of the replicates that gave a signal; lower means stronger binding.
An entry "no signal" has no value in the source: the pair was not observed among the diploids in any replicate. This suggests poor binding but is not conclusive.

CDR-L1,CDR-L2,CDR-L3,apparent Kd,detected,empty controls
KIAQSMNLTSHHINSVA,QSETREE,QQYNHLPLS,9.1 nM,6/6,1/18
KLSQSGLYESRNKNNVA,EASTRES,QQYHRLPLS,1.2 nM,6/6,0/18
KSSQSVLYHSRNKNSVA,WASTRES,QSYHRLPLS,220 nM,2/6,1/18
MVNGLTDHLSKNTNNVA,ETTTREE,QQYDRLPLV,1.8 nM,6/6,0/18
KLMPFEEYESRNKNSVA,EASTRES,QQYHRLPLS,1.6 nM,6/6,0/18
TVGQVTMVESYNKDSVA,QASTRLQ,QDYHRLPLS,3.8 nM,6/6,2/18
KLVNSELYESRQKNSVA,NASQREM,QQYHRLPLS,1.5 nM,6/6,1/18
KLSQSNDYEDRNANNVA,NASQRES,QEYHRLPLS,9.9 nM,6/6,0/18
KLQQSTLYESRNKNSVA,NASTRCS,QQYHRLPLS,390 pM,6/6,2/18
KSSPVVLYESLNKNSVA,NASTRMS,QQYHRLPLS,4.2 nM,6/6,1/18
KLSQSVRMESFVQDNVA,ENSTREA,QDYHRLPLS,no signal,0/6,0/18
KLSQDYCYGDRNKNSVA,NASTREQ,QQYHRLPLS,7.1 nM,6/6,1/18
KIGMTLNQLMHQKQNVA,DLVTREN,QQYTRLPLS,3.7 nM,6/6,0/18
KSSQSVLYESRNKNPVA,GASTRES,QQYHRLPLS,21 nM,6/6,1/18
KLSQSVLYESRNKNSVA,NASTREQ,QDYHRLPLS,1.2 nM,6/6,0/18
KLSEIAHFESRKKNSVA,ENSTREA,QQYDHLPLS,240 nM,6/6,1/18
KSSQSVLYESENKNSVA,WASTVES,QSYHRLPLH,no signal,0/6,0/18
KSSKSVLYESDNKNSVA,WASTRES,QQYFRLPLS,73 nM,6/6,2/18
IISQSVMFQQTLINSVA,NAQTREE,QQYHRLPLS,4.4 nM,6/6,2/18
KFQQSVLYESRNLNNVA,HGSTRSS,QQYHRLPLS,620 pM,6/6,0/18
KFSQSVLYESRNKKSVA,WGSTRES,QQYHRLPLS,8.8 nM,6/6,0/18
KLRQVTGYEMLNKNSVA,QTSTRVN,QDYHRLPLS,7.0 nM,6/6,1/18
KLSQSNKYESRMKNSVA,QASQREQ,QQYHRLPLS,1.8 nM,6/6,2/18
KWEFSVLGESRNKNAVA,SASQREQ,QQYHRLPLS,1.2 nM,6/6,0/18
MVKMENEEFAQDKHSVA,EAVERES,QQYHRLPII,14 nM,6/6,0/18
KLSQSVEMESRNKNSVA,NASTRES,QQYHRLPLS,580 pM,6/6,0/18
HLAQSTDLESVHKNSIA,DLMTRES,QQYHRLPLS,1.9 nM,6/6,4/18
KFSQSVMYESRNKNSVA,DGSTRES,QQYHRLPLS,320 pM,6/6,1/18
KSSISELYESRNENSVA,EASTREQ,QQYHRLPLS,1.3 nM,6/6,0/18
IISQSVMFEQTLINSVA,NAQTREN,QQYHRLPLS,3.7 nM,6/6,2/18
KSSQSVDYESRNKNSVA,WASTREN,QQPHTLPLS,270 nM,1/6,2/18
KYSFSELYESRNKNSVA,EASCREE,QQYHRLPLS,4.7 nM,6/6,2/18
MISQVMNTLTREGNNVA,DLAERER,QQYFRLPLS,5.2 nM,6/6,0/18
MMSQVTGQGTRHRNNVA,QTSEREP,QQYDRLPLV,820 pM,6/6,0/18
KSSQTVLWESTNKNGVA,WASTRES,FQYHRLPLS,no signal,0/6,0/18
KSSMSYLYESRNENSVA,EASTREQ,QQYHRLPLS,940 pM,6/6,1/18
KSSQSVLYESRNDPSVA,SASTRES,QQYHRLPLS,7.1 nM,6/6,2/18
HLSWVWLYESRNKNSVA,NASTRES,QQYHRLPLS,1.4 nM,6/6,1/18
VISMFELQGTGWAQNIA,QASHRTE,QQFSRLPLV,29 nM,1/6,0/18
KSSQGVLYESRNKNSVA,GASTRES,QQYHRLPLH,3.0 nM,6/6,2/18
KLGQTVGYEQRNKSRVA,DNSTRES,QQYDRLPLS,360 nM,6/6,0/18
KISQSVGYQDRNKNSVA,NAQTRMQ,QQYHRLPLS,16 nM,5/6,0/18
KLSQSHLYESRMKNSVA,NASTREM,QQYHRLPLS,760 pM,6/6,0/18
KSSQSVLYESRNKNSVA,NASTRES,NQYHRLPLS,310 nM,4/6,4/18
KLSQSWGYESRNKNSVA,HASTRES,QQYHRLPLS,1.1 nM,6/6,1/18
TISTSMRYESSLKSAIA,NAQTRES,QQYHRLPIS,3.0 nM,6/6,2/18
KSSQSVLYESENKNSVA,QASTRES,QQYHRLPLS,3.6 nM,6/6,0/18
KMLQAVLYESRNKNSVA,HASTRED,QQYHQLPLS,1.3 nM,6/6,2/18
KLSQSKLYESRNKNSVA,NASTREV,QQYHRLPLS,1.2 nM,6/6,0/18
KSSQSVDRESRNKNSVA,DASTRES,QQYHRLPLS,1.4 nM,6/6,0/18
KLSQSVRMESFVKDNVA,ENSTREA,QDYDRLPLS,640 nM,1/6,0/18
KSSQSVLYESRNKNSVA,WASTREP,QVYHRLPLS,66 nM,1/6,0/18
TISYSAMMTGLNRNSVA,QAEERLE,QQYNRLPLS,4.5 nM,6/6,0/18
KSDQSVLYESRNKNSVA,AASTRES,QQYHRLPLS,1.9 nM,6/6,1/18
QLLFATMQGTYNRNSVA,HAETRED,QSYHRLPLS,43 nM,6/6,1/18
KSSQSGLYEDRVKNSVA,GASTRES,QQYHRLPLS,870 pM,6/6,2/18
MAYGGDMLESVTRNSVA,NAETRED,QDYHRLPLS,6.2 nM,6/6,0/18
QIGMLLNFESKIVNNVA,QMETRVS,QQYDRLPLS,6.5 nM,6/6,0/18
KSSPSVLYESRNPNSVA,WASTRES,QQYHRLPLS,26 nM,5/6,3/18
KFSDSVLLESRTKNSVA,DASTRES,QQYHRLPLS,750 pM,6/6,0/18
KISQNMGETQRNKNSVA,EVSMVPS,QQYWRLPLS,18 nM,6/6,1/18
KWSQSWLMESMNSNSVA,HASQRES,QQYHRLPLS,1.6 nM,6/6,0/18
KIAQSMNLTSHHINSVA,QSETRED,QQYNHLPLS,56 nM,2/6,0/18
KISQSWLYESRNINNVA,SCSMRES,QQYHRLPLS,8.1 nM,6/6,1/18
KLSQYVGGESRNKSSLA,DNSTRES,QQYYRLPLS,6.2 nM,6/6,1/18
QLYAVQDLTSKNSNNVA,EQSTREN,QQYHRLPLS,10 nM,6/6,1/18
KLSQSVLYESRNKNHVA,WASTRES,QQYHRLPLS,44 nM,6/6,0/18
KLVNSTLYESRQKNSVA,KASTRES,QQYHRLPLS,25 nM,6/6,0/18
QLDQAYRVGALWTDSIA,HASMRVQ,QCYNRLPLM,46 nM,3/6,1/18
KISMLFNYESTNKNSIA,EMTTRES,QHYHRLPLS,2.9 nM,6/6,1/18
TISNSFMMENQFKNSVA,QASTREE,QCYDRLPLS,220 nM,6/6,1/18
KLSQSELYESRNWNSVA,NASTRLS,QQYHRLPLS,1.3 nM,6/6,0/18
KFGQGVLYESRVKNSVA,GASTRES,QQYHRLPLS,820 pM,6/6,1/18
KLSQSNLYESRNKNSVA,NASQRLS,QQYHRLPLS,400 pM,6/6,1/18
MVNQIMDHLSKNTNSVA,ETVTREE,QQYDRLPLS,20 nM,6/6,0/18
KVSEFMKGLMMRTDSIA,DNVTREN,QQYDRLPLS,120 nM,6/6,0/18
KLSQSVWYESRNKNSVA,NASTREQ,QQYHRLPLS,710 pM,6/6,1/18
KIRVHHLMFSQNESNIA,GMSVRSR,QQYYHLPLT,400 nM,2/6,1/18

For reference, 6 entries of the list once more:

CDR-L1	CDR-L2	CDR-L3	apparent Kd	detected	empty controls
KISQSWLYESRNINNVA	SCSMRES	QQYHRLPLS	8.1 nM	6/6	1/18
KSSQSVDYESRNKNSVA	WASTREN	QQPHTLPLS	270 nM	1/6	2/18
VISMFELQGTGWAQNIA	QASHRTE	QQFSRLPLV	29 nM	1/6	0/18
KSSQGVLYESRNKNSVA	GASTRES	QQYHRLPLH	3.0 nM	6/6	2/18
KMLQAVLYESRNKNSVA	HASTRED	QQYHQLPLS	1.3 nM	6/6	2/18
KLSQSGLYESRNKNNVA	EASTRES	QQYHRLPLS	1.2 nM	6/6	0/18

The authors averaged sequences with at least three values out of six and counted those with two or fewer as poor binders.
The parent sequence was in this pool as ten entries: three were never detected, three once, and four in most replicates, with averages from 2.2 nM to 240 nM.
The range of this assay differs from that of the first round, and the authors advise against merging the two.
Nonspecific signal, from three strains lacking the peptide, appeared in 4% of pairings of all light chain designs, centred on 430 nM (5% of these signals below 38 nM); values are not corrected for it. For each scFv, signals with the empty controls are counted beside the result.